Like-named read-outs stand apart in the source and are kept apart here.
What was measured:
[1] = cited from earlier work
VEGFA = assay: Murine neural retinal VEGFA expression after intraperitoneal hCG (real-time PCR, ddCT); assay type: in vivo, C57BL/6 wild type mice
Text: In the uterine vasculature, the pro-angiogenic hormone, hCG, is an important regulator of vascular endothelial growth factor (VEGF) and two VEGF receptors, (VEGFR-1, VEGFR-2) I propose that hCG also functions as an ocular VEGF regulator. The hallmark of early stage ROP, regression of immature retinal vasculature, results from hyperoxia-induced suppression of VEGF. The abnormal neovascularization characteristic of advanced stage ROP results from the retina's exuberant upregulation of VEGF to overcompensate for the earlier oxygen-induced VEGF suppression. The following experiment(s) was performed. Relative Quantity Chart (one control from each group set as calibrator) Murine Neural Retinal VEGFA expression post intraperitoneal administration of PBS (control vehicle) versus hCG (test compound) P=postnatal day (i.e. P7=postnatal day 7); (SDS v1.4 ddCT study, Applied Biosystems 7500 Fast Real-Time PCR System). 1320 IU/kg intraperitoneal human chorionic gonadotropin (hCG) or phosphate but saline were intraperitoneally administered, to C57BL/6 wild type mice.
(a) Group 1: P7 murine neonates, were injected with either hCG or PBS with retinal processing one day, later.
(b) Group 2: P25 young adult mice, received either an injection of hCG or PBS with retinal processing the next day. There were two controls and two test mice in this group.
(c) Group 3: P29/P30 young adult mice, received 2 doses of either hCG or PBS, one dose on each of two consecutive days with retinal processing the day after the second dose. There was one control (PBS) and one test mouse (hCG) in this group. There was a 400% significant (p<0.05) increase in VEGFa expression in the test mouse vs the control.

[2] = system: mouse model of oxygen induce retinopathy (OIR); assay type: in vivo; conditions: for increase of preretinal nucleus count: histology on P17, vs vehicle
Procedure: The aim of this study was to assess the effect of human chorionic gonadotropin hormone (hCG) delivered intraperitoneally on retinal neovascularization in the mouse model of oxygen induce retinopathy (OIR).
Three (3) litters of five (5) pup mice were used, one in each treatment group. The retinopathy was induced in Day-7 postnatal animals (P7) by a 5-day exposure to a 75% oxygen atmosphere (from P7 to P12). Animals were then kept in normoxia. Animals were treated by once daily intraperitoneal (ip) administrations of hCG at 1320 or 1600 IU/kg and vehicle control for 10 consecutive days (from P5 to P14). On P17, both eyeballs were removed and processed for histology.
The retinal neovascularization was evaluated by counting preretinal nuclei, i.e. the nuclei from the new vessels extending into the vitreal side of the internal limiting membrane in histological sections from both eyes.

Substance	half-life [1] [h]	increase in retinal VEGFa expression compared to control (VEGFA; Group 1: P7 murine neonates, 1320 IU/kg ip single injection, retinal processing one day later, average of two test mice) [%]	decline in retinal VEGFa expression (VEGFA; Group 2: P25 young adult mice, 1320 IU/kg ip single injection, processing next day, one of two test mice, nonsignificant) [%]	increase in VEGFa expression over each control (VEGFA; Group 2: P25 young adult mice, 1320 IU/kg ip single injection, processing next day, the other test mouse, p<0.05) [%]	increase in VEGFa expression vs control (VEGFA; Group 3: P29/P30 young adult mice, 2 doses of 1320 IU/kg ip on two consecutive days, processing the day after second dose, one test mouse, p<0.05) [%]	upregulation of VEGF in the mice tested (VEGFA; summary of Groups 1-3 (FIG. 3))	retinal neovascularization ([2]; doses of 1320 and 1600 IU/kg, mouse model of OIR)	increase of preretinal nucleus count ([2]; hCG 1320 IU/kg ip once daily P5 to P14, OIR pup mice, p=0.004) [%]	increase of preretinal nucleus count ([2]; hCG 1600 IU/kg ip once daily P5 to P14, OIR pup mice, p=0.0085) [%]
luteinizing hormone [LH]	0.333								
human chorionic gonadotropin [hCG]	> 24	70	20	70	400	significant upregulation	significantly increased	61	51

Source: patent publication US20170136093A1, “METHOD FOR PREVENTING OR TREATING OCULAR DISORDERS” (Zietchick Research Institute, LLC, priority 2014, published 2017)
